Results: patent US12629363B2, “Prophylaxis and treatment of angioedema” (PHARVARIS GMBH, priority 2020, dated 2026)

Assay: Drug-drug interaction trial with itraconazole, PK (Example 5)

Substance: hydroxyitraconazole
- mean predose plasma concentration (Ctrough) (Day 4, itraconazole 200 mg dosing): 0.73 ± 0.0935 µg/mL
- mean predose plasma concentration (Ctrough) (Day 7, itraconazole 200 mg dosing): 1.187 ± 0.213 µg/mL
